# Yeast mating assay B: variants of the scFv Ab-14

The measurements come from Li et al. 2023 (doi:10.1038/s41467-023-39022-2) through the FLAb antibody collection.

Antigen: PDVDLGDISGINAS, a 14-residue peptide of the SARS-CoV-2 spike HR2 region.

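Phage display of a naive human antibody library on the peptide gave the parent. These sequences belong to a second round, designed from the earlier measurements on random variants of the parent. Several design methods are mixed in this list. The scFvs were displayed on barcoded MATa yeast, the peptide on MATalpha yeast. Pairs that bind mate more often; barcode pairs of the diploids are counted by sequencing. Read counts were normalised to the haploid input and turned into Kd by a linear fit to BCL2-family pairs of known affinity, for each replicate. Mating was done six times.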

Ab-14 is the parent antibody, in scFv form: VH, then three GGGGS repeats, then VL. The light chain is unchanged in all variants.
VH: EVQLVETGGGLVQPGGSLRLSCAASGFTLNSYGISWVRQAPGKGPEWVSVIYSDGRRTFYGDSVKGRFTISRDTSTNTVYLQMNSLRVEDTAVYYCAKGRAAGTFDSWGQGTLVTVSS
VL: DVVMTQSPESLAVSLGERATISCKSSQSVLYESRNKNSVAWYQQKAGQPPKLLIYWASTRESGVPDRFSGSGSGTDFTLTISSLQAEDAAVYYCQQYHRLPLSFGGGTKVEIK

Variants are written as CDR1, CDR2 and CDR3 of the heavy chain (limits as in the source). Parent: GFTLNSYGIS, VIYSDGRRTFYGDSVK, GRAAGTFDS.
This list holds designs with more than six substitutions.
Scale: log10 of Kd in nM, estimated from mating counts; low values are strong binders.
"nd" means that the variant was in the library but no mating with the target was seen in that replicate; the authors take this as a sign of poor binding, and no number exists.
As a blank, each scFv also met three strains without target: over all heavy chain designs, 1% of these pairings were detected, typically at 2.08 and seldom below 0.84. The control count says in how many pairings with the empty strains this scFv gave a signal.
In the paper, a design with two or fewer of six values counts as a poor binder.
The range of this assay differs from that of the first round, and the authors advise against merging the two.
Of ten entries with the parent sequence, four were seen in most replicates (averages 0.34 to 2.37), three in one and three in none, so single entries are noisy.

GFDLNEYGIS, VIYADGVRTAYIDSVK, GEAAGTFDL: 0.51, 0.24, 0.74, 0.48, -0.33, 0.66 (controls 0 of 18).
GFDLNEYGIS, VIYADGMRTAYSDSVK, GEAGGTFDV: 0.24, 0.25, 0.17, -0.15, -0.33, 0.60 (controls 0 of 18).
GFDLNEYGIS, VIYADGRRTSYADSVK, GEVAGTFDV: 0.10, -0.45, -0.47, -0.48, 0.06, 0.11 (controls 0 of 18).
GKKLDEYGIS, VIYADGKRNFYSNSVK, GGMATGLFV: nd, nd, nd, nd, nd, nd (controls 0 of 18).
GFDLNEYGIS, VIYADGRRTAYADSVK, GQLAGTFDT: -0.04, -0.25, -0.82, -0.63, -1.06, -0.37 (controls 0 of 18).
GFDLNEYGIS, VIYADGQRTAYADSVK, GETAGTFDL: 0.24, 1.21, 0.43, 0.45, 0.10, 1.06 (controls 0 of 18).
GFGLDEYGIS, VIYADGNRVFYADTVK, GLLGILKVV: nd, nd, nd, nd, nd, nd (controls 0 of 18).
GFDLNEYGIS, VIYADGQRTAYADNVK, GNQAGTFDV: -0.10, -0.53, 0.46, -0.53, -0.37, -1.24 (controls 0 of 18).
GFDLDEYGIS, VIYADGKRTAYTDSVK, GEVAGTFDT: 0.07, -0.76, -0.84, -0.63, -0.03, -0.32 (controls 0 of 18).
GFDLNEYGIS, VIYADGVRQAYADSVK, GNNAGTFDI: 2.24, 2.22, nd, nd, 3.02, 2.79 (controls 0 of 18).
GDSLAEYGIS, VIYADGERTAYKNSFK, GWVAGYFDV: nd, nd, nd, nd, nd, nd (controls 0 of 18).
GFDINEYGVS, VIYADGMRTYYDDKVK, GSNGDMLLD: nd, 1.93, nd, nd, nd, nd (controls 1 of 18).
GFDLNEYGIS, VIYADGSRTVYADSVK, GNVAGTFDV: -0.26, -0.62, -0.73, -1.18, -0.92, -0.37 (controls 0 of 18).
GFDLNEYGIS, VIYADGRRTAYSDSVK, GEVAGTFDA: -0.33, -0.59, -0.33, -0.59, -0.59, -0.62 (controls 1 of 18).
GFSIDEYGIS, VIYADGLRQFYTNAVK, GEAAGTLDM: 0.55, 0.51, 0.08, 0.22, 0.29, 0.38 (controls 1 of 18).
GFDLNEYGIS, VIYADGMRTAYEDKVK, GTFLNAGWL: 0.63, 0.51, 0.93, 1.31, 1.40, 1.08 (controls 0 of 18).
GFKIDEYGIS, VIYADGMRARYSDAVK, GVKVGNVVM: 1.68, 1.74, 1.57, nd, 2.25, nd (controls 0 of 18).
GFNLGEYGIS, VIYADGRRTFYINSVK, GEFIVMGVD: nd, nd, nd, nd, nd, nd (controls 0 of 18).
GFNLDEYGIS, VIYADGRRTFYQDSVK, GEEAGTFDF: -0.47, -0.32, -0.16, -0.56, -0.50, -0.43 (controls 0 of 18).
GFDLNEYGIS, VIYADGRRTFYADSVK, GNQAGTFIL: 0.91, 0.72, 0.65, 0.74, 0.85, 1.05 (controls 0 of 18).
GFDLDEYGIS, VIYADGKRTAYADSVK, GEVAGTFDM: -0.85, -1.11, -0.61, -0.85, 0.14, -1.45 (controls 0 of 18).
GFDLNEYGIS, VIYADGRRTAYADSVK, GEAAGTFDA: 1.46, nd, 1.31, 1.60, 2.44, nd (controls 0 of 18).
GFDLNEYGIS, VIYADGVRTFYIDSVK, GENAGTFDM: -0.20, -0.01, -0.17, -0.05, -0.07, 0.35 (controls 0 of 18).
GFDLNEYGIS, VIYADGKRTAYSDSVK, GQNAGTFDI: -0.86, -0.82, -0.95, -0.96, -0.91, -0.18 (controls 0 of 18).
GFDLNEYGIS, VIYADGQRSAYADSVK, GENAGTFDV: -0.55, -0.48, -0.44, 0.01, -0.13, -0.60 (controls 1 of 18).
GFDLNEYGIS, VIYADGVRKAYADSVK, GENAGTFDL: -0.27, 0.05, -0.65, -0.46, -0.78, 0.29 (controls 0 of 18).
GFDLNEYGIS, VIYADGMRTAYSDNVK, GQNAGTFDV: -0.68, -0.55, -1.08, -0.56, -1.18, -0.53 (controls 0 of 18).
GFDLNEYGIS, VIYADGLRTAYADDVK, GNTAGTFDV: -0.14, -0.68, -0.64, -0.56, -0.65, -0.47 (controls 1 of 18).
GESLDEYGIS, VIYADGQRVKYSNNVK, GLHFGVFDM: nd, nd, nd, nd, nd, nd (controls 0 of 18).
GFDLNEYGIS, VIYADGRRTAYADSVK, GNVAGTFIQ: -0.43, -0.60, -0.70, -0.74, -0.71, -0.38 (controls 0 of 18).
GDALDEYGIS, VIYADGMRSSYSNDVK, GNNFGNKMV: nd, nd, nd, nd, nd, nd (controls 0 of 18).
GFDLDEYGIS, VIYADGMRKAYADSVK, GNEAGTFDV: -0.30, -0.48, -0.38, -0.56, -0.53, -0.39 (controls 1 of 18).
GKSLDEYGIS, VIYADGKRTMYANDVK, GHVGYIFMM: nd, nd, nd, nd, nd, nd (controls 0 of 18).
GFSLDEYGIS, VIYADGVRTFYADSVK, GNSAGTFDS: -1.19, -0.17, -1.06, -1.58, nd, -0.83 (controls 0 of 18).
GFNLMEYGIS, VIYADGTRTAYADTVK, GKYVDTFVD: nd, nd, nd, nd, nd, nd (controls 0 of 18).
GFSLDEYGIS, VIYADGVRKSYMNSVK, GNIKGTLFA: nd, nd, nd, nd, nd, nd (controls 0 of 18).
GGDIQEYGIS, VIYADGQRAQYADAVK, GTIGGIFSD: nd, nd, nd, nd, nd, nd (controls 0 of 18).
GADLNEYGIS, VIYADGRQVYYANSFK, GHVAGTFDS: nd, nd, 2.03, nd, 3.08, nd (controls 0 of 18).
GFTLDEYGIS, VIYADGRRTFYQDSVK, GNVAGTFDT: -0.64, -0.37, -0.83, -0.63, -0.84, 0.24 (controls 0 of 18).
GFDLNEYGIS, VIYADGSRTFYSDSVK, GQTAGTFDI: -0.37, -0.19, -0.21, -0.55, -0.27, -0.50 (controls 0 of 18).
GFGLDEYGIS, VIFADGERKYYTDNVK, GHFGEDGVV: 2.08, nd, nd, nd, nd, nd (controls 0 of 18).
GFDINEYGIS, VIYADGRRTAYADSVK, GEAAGTFDT: -0.13, 0.10, 0.36, 0.85, 1.55, 0.11 (controls 0 of 18).
GFDLGEYGIS, VIYADGQRAAYQQQFK, GEAGGAFDL: nd, nd, nd, nd, nd, nd (controls 0 of 18).
GFDLDEYGIS, VIYADGMRTFYTDSVK, GGNAGTFDV: -0.30, -0.55, -0.64, -0.69, -0.65, -0.63 (controls 1 of 18).
GFDLNEYGIS, VIYADGVRTAYSDSVK, GTNAGTFDL: -0.27, -0.66, -0.66, -0.47, -0.66, -0.25 (controls 0 of 18).
GEDLEEYGIS, VIYADGMRQYYAANVK, GDINDVDDL: nd, nd, nd, nd, nd, nd (controls 0 of 18).
GFGLMDYGIS, VIYADGMRRSYANSVK, GHHAGIFDF: nd, nd, nd, nd, nd, nd (controls 0 of 18).
GFDLNEYGIS, VIYADGMRTAYSDSVK, GSNAGTFDI: 0.34, 0.16, 1.05, 0.64, 1.00, 1.84 (controls 0 of 18).
GGNLDEYGIS, VIYADGKRRQYVDNVK, GSHADAFDM: nd, nd, nd, nd, nd, nd (controls 0 of 18).
GFELDEYGIS, VIYADGARTGYVDNVK, GEAGGDFHV: nd, nd, nd, nd, 2.41, nd (controls 1 of 18).
GQDLEEFGIS, VIYADGMRAAYADNVK, GVKNGNVTI: nd, nd, nd, nd, nd, 1.50 (controls 0 of 18).
GFELNEYGIS, VIYADGRRTFYADSVK, GNQAGTFDQ: nd, nd, nd, nd, 1.47, nd (controls 1 of 18).

A selection of 4 entries from above:

| CDR-H1 | CDR-H2 | CDR-H3 | log10 Kd, replicates | control signals |
|---|---|---|---|---|
| GFDLNEYGIS | VIYADGSRTVYADSVK | GNVAGTFDV | -0.26, -0.62, -0.73, -1.18, -0.92, -0.37 | 0 of 18 |
| GFDLNEYGIS | VIYADGKRTAYSDSVK | GQNAGTFDI | -0.86, -0.82, -0.95, -0.96, -0.91, -0.18 | 0 of 18 |
| GDSLAEYGIS | VIYADGERTAYKNSFK | GWVAGYFDV | nd, nd, nd, nd, nd, nd | 0 of 18 |
| GFDLDEYGIS | VIYADGKRTAYADSVK | GEVAGTFDM | -0.85, -1.11, -0.61, -0.85, 0.14, -1.45 | 0 of 18 |